From US20090053168A1, “TREATMENTS OF B-CELL PROLIFERATIVE DISORDERS” (priority 2007, published 2009)

Legend:
H929 cells = experiment: Anti-proliferation assay (ATPLite, 72 h), H929; type: cell-based
ANBL-6 cells = experiment: Anti-proliferation assay (ATPLite, 72 h), ANBL-6; type: cell-based; conditions: in combination with CGS-21680
KSM-12-PE cells = experiment: Anti-proliferation assay (ATPLite, 72 h), KSM-12-PE; type: cell-based; conditions: in combination with CGS-21680
OPM2 cells = experiment: Anti-proliferation assay (ATPLite, 72 h), OPM2; type: cell-based, human; conditions: in combination with CGS-21680; OPM-8
RPMI-8226 cells = experiment: Anti-proliferation assay (ATPLite, 72 h), RPMI-8226; type: cell-based
MM.1R cells = experiment: Anti-proliferation assay (ATPLite, 72 h), MM.1R; type: cell-based

## CC[C@@]1(O)C(=O)OCc2c1cc1n(c2=O)Cc2cc3c(CN(C)C)c(O)ccc3nc2-1 [Topotecan hydrochloride]
H929 cells
  synergy score: 1.67 and 1.185

## N[C@@H](Cc1ccc(N(CCCl)CCCl)cc1)C(=O)O [melphalan]
ANBL-6 cells
  synergy score: 2.3

## CC(C)C[C@H](NC(=O)[C@H](Cc1ccccc1)NC(=O)c1cnccn1)B(O)O [bortezomib]
KSM-12-PE cells
  synergy score: 0.36
OPM2 cells
  synergy score: 1.92

## O=C(O)CCCc1ccc(N(CCCl)CCCl)cc1 [Chlorambucil]
RPMI-8226 cells
  synergy score: 0.43
MM.1R cells
  synergy score: 1.32

Where “and” joins values, the source holds several entries; their conditions need not be identical. Identical values can stand only once. Counter-ions that a name gives are not always drawn.
